Binding of CDR-mutated scFvs to a peptide of the spike HR2 region

Binding partner: SARS-CoV-2 spike HR2 peptide, sequence PDVDLGDISGINAS.

Parent scFv Ab-14: VH joined to VL by a (GGGGS)3 linker. Changes lie in the light chain CDRs alone.
VH: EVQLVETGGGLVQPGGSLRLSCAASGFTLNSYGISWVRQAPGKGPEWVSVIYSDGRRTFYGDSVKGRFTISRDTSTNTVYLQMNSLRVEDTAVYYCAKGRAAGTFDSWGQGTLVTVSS
VL: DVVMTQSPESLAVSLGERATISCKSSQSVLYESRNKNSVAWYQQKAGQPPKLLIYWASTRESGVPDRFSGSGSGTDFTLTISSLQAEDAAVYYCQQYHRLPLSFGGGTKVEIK

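This is the validation round: designs drawn from the data on random variants, tested in the same kind of assay. Several design methods are mixed in this list. The scFvs were displayed on barcoded MATa yeast, the peptide on MATalpha yeast. Binding brings cells together so that they mate, and sequencing counts the barcode pairs among the diploids. The ratio of observed to expected reads was calibrated, replicate by replicate, on BCL2-family standards whose Kd was known from biolayer interferometry. The assay was run in six technical replicates.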

Variants are written as CDR1, CDR2 and CDR3 of the light chain (limits as in the source). Parent: KSSQSVLYESRNKNSVA, WASTRES, QQYHRLPLS. Values are apparent Kd, the geometric mean of the replicates that gave a signal; lower means stronger binding. "no signal" marks a missing value. The strain was present, yet no cells mated with the target were sequenced in any replicate, which points to weak or no binding. Three control strains display no target. For all light chain designs, 4% of the pairings with them gave a signal, with a median of 430 nM and one signal in twenty below 38 nM, so weak values seen in few replicates may be background. The authors averaged sequences with at least three values out of six and counted those with two or fewer as poor binders. A sequence measured in both rounds can read differently, since the two assays cover different ranges.

| CDR-L1 | CDR-L2 | CDR-L3 | apparent Kd | replicates with signal |
|---|---|---|---|---|
| TIAQSMLYLSNLKNSIA | QAETRES | QQYHRLPIS | 35 nM | 6/6 |
| KVSQSVWYESRNKNSVA | NASTRES | QQYHRLPLS | 750 pM | 6/6 |
| KSSISVLYESRNENSVA | WASTRES | QQYHRLPLS | 4.1 µM | 1/6 |
| KFSQSVDYESRNKNSVA | EASTRES | QQYHRLPLS | 730 pM | 6/6 |
| NLKENNVDNQTKYSNIA | SADQREK | QQYYRLPLQ | 1.4 nM | 6/6 |
| KSSQSVLSESRNKNSVA | AASTRES | QQYHRLPLS | 12 nM | 6/6 |
| MISQLYNMGTFAINSVA | QAEIRNA | QQYDRLPLA | 15 nM | 6/6 |
| MISQSFLIGSRAKNSVA | QTSTREQ | QQYDRLPLS | 1.2 nM | 6/6 |
| NLNTYYYGGTLNTDNIA | HGNMVEA | QQYDRLPLS | 4.2 nM | 6/6 |
| KLEQSSNYESRNKNSVA | NASTRES | QQYHRLPLS | 3.1 nM | 6/6 |
| KLSQSVLYESRNKNSVA | EASTRMQ | QQYHRLPLS | 550 pM | 6/6 |
| IVSQLMLWGYLAKNSIA | EAEMRLN | QQYERLPLF | 86 nM | 1/6 |
| KIPQSVLYESRNKNSVA | WASTREV | QQYSRLPLS | 600 pM | 6/6 |
| KLSQSELYESRNKNSVA | NASLRLS | QQYHRLPLS | 1.3 nM | 6/6 |
| TISQSANQESHNKNSVA | DLNVRGS | QQYDRLPLS | 3.5 nM | 6/6 |
| KVSQSQLYESRNKNSVA | NASQRES | QQYHRLPLS | 730 pM | 6/6 |
| KSSISYLYESRNKNSVA | EASQRES | QQYHRLPLS | 9.3 nM | 6/6 |
| KSSQSWLYESRNKNSVA | GASWRES | QQYHRLPLS | 1.9 nM | 6/6 |
| KLPQSVGYESRNKNSVA | NASTRES | QQYHRLPLS | 510 pM | 6/6 |
| KLQQSVLYESRNKNSVA | DASTRMS | QQYHRLPLS | 860 pM | 6/6 |
| MLSDLVKMGSRQNNSVA | DNSTRGS | QQYDRLPLS | 430 nM | 1/6 |
| KMQQSELYESRNKNSVA | NASQRLS | QQYHRLPLS | 1.1 nM | 6/6 |
| HMSMITLQGMRMRNSVA | QMTTREN | QQYDHLPLS | 130 nM | 4/6 |
| FISQSVLYESRNKNSVA | WASTRES | QQYHRLPLS | 32 nM | 6/6 |
| KLGATLNTLSEKKNNVA | DLVMREN | QQYHRLPLS | 3.8 nM | 6/6 |
| KLSQSVPYESRNKNSVA | NASTRCS | QQYHRLPLS | 1.4 nM | 6/6 |
| KLSLVLGVSKQVEKNIA | NTRLKVA | QQYDRLPLT | 6.7 nM | 6/6 |
| KLSQSELYESRMKNSVA | NASTRED | QQYHRLPLS | 640 pM | 6/6 |
| KSSQSWLYESRNKNSVA | GASTRET | QQYHRLPLS | 500 pM | 6/6 |
| KVSEFMKGLMMRTDSIA | DNTTRSN | QQYDRLPLS | 5.4 nM | 6/6 |
| KVSQSVLYESRHKNSVA | NASTRES | QQYHRLPLS | 2.6 nM | 6/6 |
| KLSQSVLYEERNKNSVA | HASTRLS | QQYHRLPLS | 510 pM | 6/6 |
| KIEEYTKGDRYFQYSIA | QDDIREK | QQYGQLPLT | 120 nM | 3/6 |
| KSSQSVLYESRDKNSVA | WASLRES | QQYHRLPLS | no signal | 0/6 |
| KIGGVTNGISRNKNSVA | EQSTRED | QQYNRLPLI | 3.4 nM | 6/6 |
| KLSQSFLYESRNKNSVA | QASTRES | QQYHRLPLS | 630 pM | 6/6 |
| KLSQSVLYQSQLKNSVA | NAQTRMS | QQYHRLPLS | 550 pM | 6/6 |
| QLAVNRLMEYTMNDAIA | GKTLRVD | QQYARLPLS | 720 pM | 6/6 |
| KLSQEMEYESRNKNSVA | QASERES | QQYHRLPLS | 1.0 nM | 6/6 |
| KCSHSVLTSTRNGNSVA | WASTRED | QQYHQLPLS | 92 nM | 5/6 |
| MITDAWNTLGNDRNNIA | HNNVRED | QQYQQLPLV | 6.3 nM | 6/6 |
| KFQQSVLYEDRNLNSVA | HGSTRSS | QDYHRLPLS | 1.8 nM | 6/6 |
| KLSQSVLYESRNKNSVA | DASTRES | QQYHRLPLM | 480 pM | 6/6 |
| KSSYSVLGESRNKNSIA | WASTRES | QQYHRLPLS | 27 nM | 6/6 |
| HLGDTVMQGSYYKNSVA | QESTRAD | QQYHRLPLS | 1.6 nM | 6/6 |
| KISQMVRVGATHSNSIA | EEVTRAK | QQYHRLPLS | 2.3 nM | 6/6 |
| HVSESIFAQSKMRNSVA | ENNTRES | QQYDRLPLS | 190 nM | 2/6 |
| KSSQSFLYESRNKNSVA | GASTRES | QQYHRLPLS | 1.2 nM | 6/6 |
| YFSQSVLYESRNKNSVA | WISTRES | QQYHRLPLS | no signal | 0/6 |
| KSSQSLLYESRNKNAVA | YAKTRES | QQYHRLPLS | 6.3 nM | 6/6 |
| KFSFSVLLESRTKNSVA | NASTRES | QQYHRLPLS | 9.8 nM | 6/6 |
| QLGMTLKELSKVTNNVA | EMTTRGN | QQYYRLPLS | 3.8 nM | 6/6 |
| KLSQSVLYESRNKNSVA | NASTRLV | QQYHRLPLS | 950 pM | 6/6 |
| KVSPSWLYEDRNKNSVA | QASQRCS | QQYHRLPLS | 980 pM | 6/6 |
| MMSSLMGYESRHINNVA | QTTTREE | QQYDRLPLI | 2.5 nM | 6/6 |
| KFDFQMPELNYQDNAVA | GMTVSIE | QHYFRLPLT | 230 nM | 2/6 |
| HIGDMLFGDHKIAHSIA | NTGVTSR | QQYSRLPLI | 5.6 nM | 6/6 |
| MVSQLYNMGQFAINSVA | QASTRNE | QQYDRLPLM | 8.5 nM | 6/6 |
| NVGQSMDGEVRNKNSVA | HQSTRED | QHYHRLPLS | 33 nM | 6/6 |

For reference, 6 entries of the list once more:

CDR-L1,CDR-L2,CDR-L3,apparent Kd,replicates with signal
NLNTYYYGGTLNTDNIA,HGNMVEA,QQYDRLPLS,4.2 nM,6/6
KVSQSQLYESRNKNSVA,NASQRES,QQYHRLPLS,730 pM,6/6
FISQSVLYESRNKNSVA,WASTRES,QQYHRLPLS,32 nM,6/6
MISQSFLIGSRAKNSVA,QTSTREQ,QQYDRLPLS,1.2 nM,6/6
KSSQSLLYESRNKNAVA,YAKTRES,QQYHRLPLS,6.3 nM,6/6
KMQQSELYESRNKNSVA,NASQRLS,QQYHRLPLS,1.1 nM,6/6

Source: Li et al. 2023 (doi:10.1038/s41467-023-39022-2), MIT Lincoln Laboratory and A-Alpha Bio; data file from the FLAb repository.